Key:
[1] = test system: phospho-ERK in melanoma derived WM-266-4 cells; assay: Mechanistic cellular assay for Raf kinase activity (phospho-ERK, Bio-Plex); conditions: read-out: pERK EC50, treated 1-2 hr at 37° C., serum free medium
From the text: (2) Mechanistic Cellular Assay for Raf Kinase Activity
The following method was utilized for quantifying the amount of phospho-ERK in melanoma derived WM-266-4 cells (one allele each of wild type BRaf and mutant BRaf (V600D) as an indicator of Raf kinase activity in cells treated with various kinase inhibitors.
(1) Detached adhered WM-266-4 cells from flask using 0.25% Trypsin. Resuspended cells in growth media (90% RPMI 1640, 10% FBS) and determine cell density.
(2) Seeded cells @ 10,000 cells/well in 96-well (flat bottom) tissue culture plates (36,000 cells/cm^2). Added growth media to a final volume of 200 uL/well and incubated overnight at 37° C.
(1) Prepared compound dilutions (1000× in DMSO) as follows. […]
(2) Prepared phospho-ERK1,2 Bioplex beads by diluting 1:50 with Bioplex Wash Buffer (mixing 49 μL Wash Buffer with 1 μL of phospho-ERK1,2 Bioplex beads for each sample to be analyzed). […]
(1) Prepared detection antibody (phospho-ERK1,2 Ab) by diluting 1:25 with Detection Antibody Dilution Buffer Buffer (mixing 24 μL Detection Antibody Dilution Buffer with 1 μL of phospho-ERK1,2 Ab for each sample to be analyzed). […]
(3) Prepared streptavidin-PE by diluting 1:100 with Wash Buffer (mixing 49.5 μL Wash Buffer with 0.5 μL of 100× streptavidin-PE for each sample to be analyzed). […]

Sequences of proteins named here, by UniProt entry; tags and fusion partners are left off.
UniProt P15056, whole entry V600E: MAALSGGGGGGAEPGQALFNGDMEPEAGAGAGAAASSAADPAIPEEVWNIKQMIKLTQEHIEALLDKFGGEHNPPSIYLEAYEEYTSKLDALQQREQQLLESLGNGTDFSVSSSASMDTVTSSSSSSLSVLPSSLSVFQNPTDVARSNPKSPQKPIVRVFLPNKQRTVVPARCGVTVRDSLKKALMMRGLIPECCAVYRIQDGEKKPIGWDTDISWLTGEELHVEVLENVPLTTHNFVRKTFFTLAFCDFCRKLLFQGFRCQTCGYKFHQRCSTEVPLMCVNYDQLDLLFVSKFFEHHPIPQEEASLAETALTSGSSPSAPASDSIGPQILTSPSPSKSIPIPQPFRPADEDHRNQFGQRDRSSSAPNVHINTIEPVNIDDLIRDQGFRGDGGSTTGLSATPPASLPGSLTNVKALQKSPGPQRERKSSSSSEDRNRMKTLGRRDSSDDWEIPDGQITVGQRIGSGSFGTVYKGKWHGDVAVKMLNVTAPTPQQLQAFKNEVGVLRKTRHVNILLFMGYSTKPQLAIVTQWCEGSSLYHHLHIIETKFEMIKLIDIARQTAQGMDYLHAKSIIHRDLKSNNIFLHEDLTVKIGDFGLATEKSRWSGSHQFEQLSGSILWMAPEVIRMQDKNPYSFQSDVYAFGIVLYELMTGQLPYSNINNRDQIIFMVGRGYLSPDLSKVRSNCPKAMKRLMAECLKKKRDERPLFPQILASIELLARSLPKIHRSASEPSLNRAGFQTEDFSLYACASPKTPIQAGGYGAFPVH

V599E Raf = V599E Raf (Homo sapiens, UniProt P15056, V600E); assay: Biochemical FRET assay, mutant Raf (phosphorylation of MEK); conditions: read-out: Raf (mut) inhibition, 0.125 nM V599E Raf, 100 nM biotin-MEK, 25 μM ATP
Procedure: (1) Biochemical FRET Assay […]
Inhibitors were diluted 4-fold in 100% DMSO and added to a final concentration of 10 μM to 40 μM to a solution containing 100 nM biotin-MEK, 0.125 nM V599E Raf in 50 mM HEPES, pH 7.4, 60 mM NaCl, 3 mM MgCl2, 2 mM DTT, 0.25 mM MnCl2, 0.01% BSA, and 0.01% Tween-20 and incubated for 20 minutes at room temperature. The kinase reaction was started by the addition of 25 μM ATP to a final volume of 45 μl and allowed to progress for 60 minutes. The reaction was stopped with 15 mM EDTA and 20 nM Streptavidin-APC, 2.5 nM Polyclonal anti p-MEK1/2 (Ser217/221), 2.5 nM Eu-labeled anti-rabbit IgG were added in Lance detection buffer and 5% Superblock in PBS for a final volume of 100 μl. The detection reaction was incubated for 90 minutes at room temperature and then read on an Analyst plate reader using standard TR-FRET (time resolved fluorescence resonance energy transfer) settings for Eu and APC.
Compounds having an activity designated as “A” provided an IC50≦100 nM; compounds having an activity designated as “B” provided an IC50 of 100-1000 nM; and compounds having an activity designated as “C” provided an IC50 of 1000-10,000 nM.

- EC50 [1]: 100 to 1000 nM
- IC50 (V599E Raf): < 100 nM
SMILES: CC(NC(=O)c1cnc2ncccn12)c1cnc(Nc2ccc(C(F)(F)F)cc2)s1 (centres unmarked) [Example 310]
